Data: US10967029B2, “Method of using Cistanche tubulosa extract to prevent, slow down, or treat an eye disease caused by oxidative stress” (Sinphar Pharmaceutical Co., Ltd., priority 2014, dated 2021)

Test system: RPE cells
Settings: high concentrations (IC50 concentrations), t-BHP
Description: The cell culturing comprises the following steps. • 1. RPE cell clones were taken out from anti-frozen tubes in liquid nitrogen and quickly moved to a sterile hood after thawed in 37° C. water bath for 1 minute. RPE cell clones were taken out and placed in 10 cm dishes having 10 mL DMEM (Dulbecco's Modified Eagle Medium) therein. 10% inactivated fetal bovine serum (FBS), 2 mM L-glutamine, 100 U/mL penicillin, and 100 µg/mL streptomycin were added into the DMEM. • 2. The dishes were placed in a 37° C. incubator and cultured in conditions of a mixture gas of 95% air and 5% CO2, as well as 70% humidity. The old mediums were replaced by fresh mediums every 3 days. Serum-free DMEM was used instead of the mediums before performing experiments. • 3. When cells proliferated to nearly saturation, the numbers of cells were counted by a cell counter. […] Since RPE cells are attachment type cells, the medium containing the cells was transferred into 15 mL centrifugation tubes and then centrifuged at 72 g for 5 mines at room temperature when the medium was replaced. […]
Before experiment, the medium was replaced by serum-free medium. Fixed quantity of RPE cells (2×10^5 cells/mL) were respectively placed in 96 wells of a plate. […] After completely dissolving the residual cells, the enzyme immunoassay analyzer was used to detect the absorbance of each well. […]

echinacoside [Embodiment 2]
cytotoxicity response at high concentration: reasonable cytotoxicity responses were observed
